Test results: paper PMC9834408, “The SPOC domain is a phosphoserine binding module that bridges transcription machinery with co- and post-transcriptional regulators” (Nature Communications, 2023)

Biological target: T1, RBM15 SPOC (Homo sapiens, UniProt Q96T37)
T1 construct: RBM15 SPOC (775–960 aa); His6 (N, cleaved yes); made in house; host or cells: E. coli Rosetta2 (DE3)
Assay: Fluorescence anisotropy binding of labeled peptides to RBM15 SPOC WT
Description: To test whether SPOC domains are universal CTD binders and determine their binding specificity, we expressed and purified the SPOC domains of the human proteins PHF3, DIDO, SHARP, RBM15, and SPOCD1 and performed fluorescence anisotropy assays to measure their binding to Atto488-labeled CTD-diheptapeptides (Fig. 2, Supplementary Figs. 3–7). To obtain a comprehensive picture of SPOC-CTD interactions, we measured binding affinities for a total of eleven peptides that were either unphosphorylated (CTD) or phosphorylated in one (1×S2P, 1×S5P, 1×S7P, 1×Y1P, 1×T4P) or both repeats (2×S2P, 2×S5P, 2×S7P, 2×Y1P, 2×T4P) (Supplementary Table 2).
For mammalian expression, human DIDO3, SHARP, and RBM15 were amplified from HEK293T cDNA and cloned into CMV10 N3XFLAG (Sigma) by Gibson assembly (NEB). These constructs were used for cloning ΔSPOC truncations using Gibson assembly (NEB). CMV10 N3XFLAG-PHF3 and PHF3 ΔSPOC constructs were generated previously. NLS-SPOC constructs were cloned into CMV10 N3XFLAG (Sigma) between NotI and XbaI. NLS sequence ([…]) was introduced to ensure nuclear localization of the isolated SPOC domains. […] His6-PHF3 SPOC was generated previously. […]
Fluorescence anisotropy measurements were performed on a Perkin Elmer LS50 B fluorescence spectrometer operated by Perkin Elmar FL WinLab software (version 3.00). […] The grating factor was determined using unconjugated Atto-488 dye. […]

For “FAM-MTNEEPLPKKVRLSETDFK [WTAP, FAM-labeled peptide of the first 19 N-terminal amino acids of WTAP, unphosphorylated]”, the “binding (in words)” value was “did not bind”.
